Results: patent US7090837

The chains behind the UniProt entries cited, without tags or fusion partners.
UniProt P02786, whole entry: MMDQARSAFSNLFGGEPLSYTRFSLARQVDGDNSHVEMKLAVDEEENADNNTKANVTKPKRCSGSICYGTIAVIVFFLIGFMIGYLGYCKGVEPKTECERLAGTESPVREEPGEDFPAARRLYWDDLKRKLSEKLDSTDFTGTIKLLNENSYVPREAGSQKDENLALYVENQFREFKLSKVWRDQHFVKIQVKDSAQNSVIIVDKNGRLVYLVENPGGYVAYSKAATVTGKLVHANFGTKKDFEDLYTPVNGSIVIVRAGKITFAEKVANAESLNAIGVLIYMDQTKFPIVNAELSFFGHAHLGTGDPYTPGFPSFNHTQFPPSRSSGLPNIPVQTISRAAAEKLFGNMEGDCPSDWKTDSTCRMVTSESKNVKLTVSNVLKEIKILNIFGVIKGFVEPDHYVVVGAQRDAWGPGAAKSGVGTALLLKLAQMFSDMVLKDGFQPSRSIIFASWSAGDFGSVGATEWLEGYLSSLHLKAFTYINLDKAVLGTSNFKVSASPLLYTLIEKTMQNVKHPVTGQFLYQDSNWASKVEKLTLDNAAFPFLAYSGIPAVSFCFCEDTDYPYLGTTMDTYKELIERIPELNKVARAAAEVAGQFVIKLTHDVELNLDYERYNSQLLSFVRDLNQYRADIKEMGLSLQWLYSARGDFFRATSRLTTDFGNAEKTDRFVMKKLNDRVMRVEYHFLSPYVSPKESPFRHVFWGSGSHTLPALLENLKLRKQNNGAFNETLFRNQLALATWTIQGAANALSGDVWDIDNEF

Assays:
[1] = molecular target: LDL receptor (LDLR) on HepG2-hLDLR cells (human) (UniProt P01130); assay: cell-based or functional assay
[2] = molecular target: transferrin receptor on HepG2 cells (immortalized human hepatocyte cell line) (human) (UniProt P02786); assay: cell-based or functional assay

| Substance | transduction efficiency on HepG2-hLDLR cells after LDLR upregulation in lipoprotein deficient serum [1] | transduction efficiency on HepG2 cells after desferoxamine upregulation of the transferrin receptor [2] |
| --- | --- | --- |
| ApoE4-CD40 chimeric targeting polypeptide (apolipoprotein E4 fused to the transmembrane domain and c (from UniProt P02649 19-317; P25942 194-277) (ligand) | 2 fold |  |
| hTf-CD40 chimeric targeting polypeptide (human transferrin fused to the transmembrane domain and cyt (from UniProt P02787 20-698; P25942 194-277) (ligand) |  | 1.5 fold |
